# Experimental data: US11535597B2, “Photoreactive ligands and uses thereof” (The Scripps Research Institute, priority 2017, dated 2022)
# Amino acid sequences for entries named in this document (tags omitted). Residues count along the entry.
# UniProt O43772, whole entry: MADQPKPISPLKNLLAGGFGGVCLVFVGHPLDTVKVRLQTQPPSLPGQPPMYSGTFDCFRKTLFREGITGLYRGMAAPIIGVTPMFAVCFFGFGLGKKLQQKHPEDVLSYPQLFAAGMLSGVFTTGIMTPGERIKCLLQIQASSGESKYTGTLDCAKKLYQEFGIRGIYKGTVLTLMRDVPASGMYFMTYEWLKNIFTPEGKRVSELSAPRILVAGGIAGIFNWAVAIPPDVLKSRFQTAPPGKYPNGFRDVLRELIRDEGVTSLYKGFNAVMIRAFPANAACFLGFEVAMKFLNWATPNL
# UniProt Q8N8N7, whole entry: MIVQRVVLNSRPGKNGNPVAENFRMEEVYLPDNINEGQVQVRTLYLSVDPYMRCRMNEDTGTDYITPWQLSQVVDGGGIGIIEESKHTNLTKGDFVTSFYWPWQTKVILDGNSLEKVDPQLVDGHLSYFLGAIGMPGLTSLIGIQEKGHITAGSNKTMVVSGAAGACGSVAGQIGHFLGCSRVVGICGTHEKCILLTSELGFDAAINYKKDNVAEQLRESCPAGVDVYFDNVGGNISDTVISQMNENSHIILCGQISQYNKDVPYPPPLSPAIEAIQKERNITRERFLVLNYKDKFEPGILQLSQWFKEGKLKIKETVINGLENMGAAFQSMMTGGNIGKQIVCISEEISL
# UniProt P37231, 238-503 limits assumed: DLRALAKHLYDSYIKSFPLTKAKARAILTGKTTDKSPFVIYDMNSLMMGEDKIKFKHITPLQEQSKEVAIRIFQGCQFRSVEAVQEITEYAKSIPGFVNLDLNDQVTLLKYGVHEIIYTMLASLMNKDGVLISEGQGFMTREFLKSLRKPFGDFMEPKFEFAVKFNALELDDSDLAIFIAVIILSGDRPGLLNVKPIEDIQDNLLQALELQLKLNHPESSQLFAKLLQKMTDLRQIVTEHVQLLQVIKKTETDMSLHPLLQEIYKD
# UniProt Q8N4Q0, whole entry: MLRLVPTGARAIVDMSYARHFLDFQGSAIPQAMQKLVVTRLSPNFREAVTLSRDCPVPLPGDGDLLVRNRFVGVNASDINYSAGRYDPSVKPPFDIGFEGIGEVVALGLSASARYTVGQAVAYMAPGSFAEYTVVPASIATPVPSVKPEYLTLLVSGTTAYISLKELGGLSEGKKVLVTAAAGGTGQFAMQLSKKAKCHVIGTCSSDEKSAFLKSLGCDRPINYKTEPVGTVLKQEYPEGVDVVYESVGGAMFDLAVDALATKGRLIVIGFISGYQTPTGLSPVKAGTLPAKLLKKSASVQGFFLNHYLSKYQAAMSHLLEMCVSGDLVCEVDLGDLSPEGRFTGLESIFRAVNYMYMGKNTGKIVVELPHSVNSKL
# Key:
# [1] = target: T1, SLC25A20 (Homo sapiens, UniProt O43772); assay: MS-based (SILAC) competition of FFF probe 3 labeling of SLC25A20 in cells; conditions: 20-50 μM
# [2] = test system: HSC5 cells; assay: Oxygen consumption rate measurements (palmitate-BSA oxidation, Seahorse)
# [3] = test system: HSC-5 cells; assay: LCMS analysis of acylcarnitines in HSC-5 cells; conditions: HSC5 cells
# [4] = target: T1, SLC25A20; assay: Gel-based competitor blockade of FFF 3 labeling of recombinantly expressed SLC25A20 in HEK293T cells
# [5] = target: T2, PTGR2 (Homo sapiens, UniProt Q8N8N7); assay: Gel-based competitor blockade of FFF 8 labeling of recombinantly expressed FLAG-tagged PTGR2 in HEK293T cells
# [6] = target: T2, PTGR2; assay: In vitro LCMS-based activity assay for PTGR2 (15-keto-PGE2 reductase activity)
# [7] = target: T2, PTGR2; assay: MS-based (SILAC) competition of FFF probe 8 labeling of endogenous PTGR2 in HEK293T cells; conditions: FFF probe 8 20 μM, 8× competitor
# [8] = target: PPARγ (Homo sapiens, UniProt P37231); assay: GAL4-PPARγ luciferase reporter assay with empty control vector in HEK293T cells; conditions: GAL4-PPARγ luciferase reporter and empty control vector
# [9] = target: ZADH2 (Homo sapiens, UniProt Q8N4Q0); assay: MS-based (SILAC) competition of FFF probe 8 labeling of ZADH2 in HEK293T cells; conditions: competition with FFF probe 8 (20 μM)
blockade of probe 3 labeling of SLC25A20 in cells by quantitative MS-based proteomics [1],competitor blockade of FFF 3 labeling of recombinant SLC25A20 (gel) ([4]; HEK293T cells),"IC50 ([4]; read-out: IC50 for blockade of FFF probe 3 labeling of SLC25A20, recombinant SLC25A20 in HEK293T cells, probe 3 20 μM) [µM]",Compound,capacity to oxidize palmitate (exogenous fatty acid oxidation) ([2]; HSC5 cells),"basal and maximal respiration (oxygen consumption rate) ([2]; HSC5 cells pre-treated for 40 min, then exogenous palmitate)",short- or medium-chain acylcarnitines (<C16) [3],"long-chain (C16, C18, C18:1) acylcarnitines ([3]; 21 0.2-100 μM, 3 h, 24 100 μM)",competitor blockade of FFF 8 labeling of recombinant PTGR2 (gel) [5],effect on 15-keto-PGE2 reductase (catalytic) activity of recombinant PTGR2 [6],"IC50 ([6]; read-out: IC50 for inhibition of PTGR2-mediated reduction of 15-keto-PGE2 (15-keto-PGE2 reductase activity), recombinant PTGR2) [µM]",PTGR2 as competed target in competitive profiling [7],direct modulation of PPARγ transcriptional activity [8],cross-reactivity with ZADH2 [9]
substantially blocked,preferential binding,10,Cc1ccc2c(CN3CCCC3CN(C)c3ccccc3)cc(=O)oc2c1 (stereo not shown),impaired capacity to oxidize palmitate,concentration-dependent inhibition,No changes,"strong, concentration-dependent increase",–,–,–,–,–,–
–,–,–,COc1ccccc1C1CCN(C(=O)CN2CCCCC2=O)CC1,–,–,–,–,preferential binding,inhibited,79,top competed targets,do not directly induce,principal off-target
